Earlier results as cited in article PMC2997927 (Molecular pharmaceutics, 2010).

Legend:
[1] = stated in introduction, reported impermeability
p53-MDM2 = details: in the test tube
p53-MDM4 = details: in the test tube
[2] = stated in introduction

For “p53_14–29: peptide corresponding to the native sequence of the MDM2-binding region of p53”, the cell permeability [1] is listed as “cell impermeable”, the “inhibition of p53-MDM2” value (p53-MDM2) is listed as “μM inhibitor” and the “inhibition of p53-MDM4” value (p53-MDM4) is listed as “μM inhibitor”. For the same substance, the enzymatic stability [2] was “prone to rapid enzymatic degradation”.
